Test system: C[S+](CC[C@H](N)C(=O)O)C[C@H]1O[C@@H](n2cnc3c(N)ncnc32)[C@H](O)[C@@H]1O
Experiment: purified protein
Details: 100 mM Tris-HCl, pH 8.0, 30 °C, apparent, substrate inhibition not considered

Substance: AzeJ (Pseudomonas aeruginosa PAO1)
- Km: 560 ± 210 µM
- kcat: 0.288 ± 0.0333 s⁻¹
